Data as given in patent US20250388584A1, “TPK AGONIST AND METHOD FOR TREATING NEURODEGENERATIVE DISEASES USING SAME” (SHANGHAI RAISING PHARMACEUTICAL CO., LTD., priority 2022, published 2025).

Sequences of proteins named here, by UniProt entry; tags and fusion partners are left off.
UniProt Q9H3S4, whole entry: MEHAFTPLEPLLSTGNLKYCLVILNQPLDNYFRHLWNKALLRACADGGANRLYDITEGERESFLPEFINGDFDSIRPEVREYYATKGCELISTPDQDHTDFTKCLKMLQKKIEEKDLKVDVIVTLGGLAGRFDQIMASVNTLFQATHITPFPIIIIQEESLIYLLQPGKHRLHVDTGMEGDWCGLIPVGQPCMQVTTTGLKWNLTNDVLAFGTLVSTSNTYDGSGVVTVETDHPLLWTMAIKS

Target: TPK enzyme (Homo sapiens (Human), UniProt Q9H3S4)
Test: TPK enzyme activity test
Settings: calculated with the effect of DMSO on TPK enzyme activity as 100%; tested form: 2HCl

For OCCN1CCN(CCCN2c3ccccc3Sc3ccc(C(F)(F)F)cc32)CC1, which Emax is on record?
The Emax was 132.31%.
